# Test results published in ChEMBL document CHEMBL4715823, “Homogeneous Assay for Target Engagement Utilizing Bioluminescent Thermal Shift” (ACS Med Chem Lett, 2018).
# By UniProt entry, the sequences of proteins in these tests, tags left out.
# UniProt Q16539, whole entry: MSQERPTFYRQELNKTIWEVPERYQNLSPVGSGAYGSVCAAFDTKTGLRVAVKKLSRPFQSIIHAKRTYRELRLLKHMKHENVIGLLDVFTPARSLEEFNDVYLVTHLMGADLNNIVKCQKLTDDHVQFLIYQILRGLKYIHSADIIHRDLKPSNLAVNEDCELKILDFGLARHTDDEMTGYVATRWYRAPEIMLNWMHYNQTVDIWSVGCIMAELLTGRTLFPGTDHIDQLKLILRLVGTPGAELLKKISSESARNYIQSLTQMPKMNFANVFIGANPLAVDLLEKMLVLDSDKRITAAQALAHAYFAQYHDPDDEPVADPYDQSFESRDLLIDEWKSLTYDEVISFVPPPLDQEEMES
# Molecular target: Mitogen-activated protein kinase 14 (Homo sapiens) (UniProt Q16539)
# Settings: HeLa, dose 50.0 µM
structure (smiles),measurement,value
Cn1c(NC[C@@H](N)Cc2ccccc2)nc(-c2ccncc2)c(-c2ccc3ccccc3c2)c1=O,Tm,59 °C
